This is a selection: effects in other tests are not listed, and their absence says nothing.

The series relates to hepatocytes of formalin-fixed liver tissues. The series is described as follows: Repeated-dose liver micronucleus (RDLMN) assay, formalin-fixed method. The settings on record: comparison between the two methods, rats treated 14 or 28 days.

`Cc1ccc([N+](=O)[O-])cc1[N+](=O)[O-]`: the “Frequency of MNHEPs by the formalin-fixed method compared with the collagenase digestion method” value was “Relatively higher frequencies of MNHEPs”.

(Values after paper PMC6507131, “Evaluation of the novel liver micronucleus assay using formalin-fixed tissues” (Genes and Environment, 2019).)
